# Experimental data published in patent US20220249674A1, “BIOACTIVE SAPONIN LINKED TO A FUNCTIONAL MOIETY” (priority 2019, published 2022).
# Entries after “also recorded” stand apart in the source; their conditions may differ.
# Legend:
# [1] = system: human A431 tumor cells; assay: A431 xenograft tumor model; type: in vivo; settings: Balb/c nude mice
# Protocol: Female Balb/c nude mice were injected subcutaneously with a suspension of human A431 tumor cells. Under the skin of the mice, a human epidermal carcinoma developed in the xenograft animal tumor model. After injection of the tumor cells, the xenograft tumor was allowed to develop to a size of approximately 170-180 mm^3. The A431 tumor cells have the following characteristics: high EGFR expressors, medium CD71 expressors, low HER2 expressors.
# In Table 13, the results of the treatment of control mice and tumor-bearing mice are presented. Tumor-bearing mice were treated with the indicated antibodies directed to either human Her2/neu, human EGFR, or human CD71, which are cell-surface receptors on the xenograft tumor. Cetuximab was conjugated with the endosomal escape enhancing saponin SO1861. The ADCs trastuzumab-saporin and anti-CD71 mAb (IgG)-saporin were tested for their tumor-attacking efficacy in the mice, measured as tumor volume in time after start of the treatment with the ADCs. The dose of the ADCs was sub-optimal in the tumor model. That is to say, from previous experiments, it was established at which sub-optimal dose of the ADCs no tumor-regression or arrest of tumor growth would be observable.
# [2] = system: A431 cells; type: cell-based, human; settings: high EGFR / low HER2 (FIG. 10)
# Protocol: (§1) Cells were seeded in a 96 well plate at 5.000-10.000 c/w in 100 μL/well and incubated overnight at 37° C. […] The media was removed from the cell culture plate and replaced by 180 μL culture media, followed by the addition of 20 μL treatment-mix/well. […] In the case that endosomal acidification inhibitors (chloroquine (Sigma Aldrich) or bafilomycin A1 (Enzo Life Sciences)) were used, the cell culture media in step 1 of treatment was replaced by 180 μL media containing 1 μM chloroquine or 0.2 μM bafilomycin A1. The plate was incubated for 1 hour at 37° C., before the 10× treatment-mix samples were added. The remaining incubation and treatment steps were performed according to standard procedures known in the field.
# [3] = monkeys; versus unconjugated DM1; cited from earlier work
# [4] = system: SK-BR-3 cells; assay: Cell viability assay (MTS), targeted 2-component system; type: cell-based; settings: SKBR3; conjugate titration with fixed 50 μM Trastuzumab-Saporin (FIG. 53)
# Protocol: as §1
Substance,outcome (death/euthanasia or survival) [1],cell killing (in words) [4],other results
"Cetuximab-SO1861: monoclonal antibody recognizing and binding EGFR, conjugated to the saponin SO1861; cleavable hydrazone linker",death/euthanasia,,"tumor size (volume) ([1]; about 170-180 mm^3 at start, sub-optimal ADC dose): 2000 mm^3"
Cetuximab: immunoglobulin binding to EGFR,(death/euthanasia),,
"T-DM1: Trastuzumab-emtansine (Kadcyla), carrying ~3.5 DM1 toxin molecules per antibody",,,cell killing (in words) [2]: kills cells at nanomolar concentrations; also recorded: not effective at such low toxin concentrations; enhancement of the tolerable dose of DM1 [3]: at least two-fold
Trastuzumab-(S)-SO1861: stable bond between SO1861 (carboxylic acid group) and the antibody,,efficient cell killing,
Trastuzumab-SO1861 (DAR 2.1): labile bond between the saponin and the antibody,,also show cell killing effects,
"Trastuzumab-SO1861: monoclonal antibody recognizing and binding HER2, conjugated to the saponin SO1861; cleavable hydrazone linker",,efficient cell killing,
